Tests used:
Test in all cases: biochemical
Type in all cases: binding
[1] = molecular target: HPPD SEQ ID NO:22 (Avena sativa, UniProt A0ACD5V6K6, DEL109-109/L256M)
Experimental: (§1) On rates (governed by an association rate constant, kon) for the formation of the enzyme: inhibitor complexes, EI and off rates (governed by a dissociation rate constant, koff) were determined by methods known in the art and essentially as described in Hawkes et al. (2001) Proc. Bright. Crop. Prot. Conf. Weeds, 2:563-568 and in PCT Patent App. Pub. No. WO 02/46387).
(§2) For example, on rates were measured by, at zero time, adding ˜60 pmoles HPPD to 50 mM BisTrisPropane buffer at pH7.0 and at 25° C. containing 25 mM Na ascorbate, 4 μg/ml bovine catalase (Sigma, St. Louis, Mo.) and an excess (˜300 pmoles) of ^14C inhibitor in a total assay volume of 425 μl and, at various time points (0-180 s), quenching the radiolabel binding reaction by addition and rapid mixing of 100 μl ‘cold’ 1 mM structure A. Protein samples quenched at different times were then exchanged into 50 mM BisTrisPropane buffer at pH 7.0 containing 0.1M KCl by rapid chromatography down a NAP5 G25 Sephadex column (GE Healthcare Ltd, Buckinghamshire UK) and the amount of ^14C bound to protein fractions quantified in Optiphase scintillant using a Tri-Carb 2900TR scintillation counter (Perkin Elmer, Wellesley, Mass.). The data were fit according to the scheme below in order to derive the value of the apparent second order rate constant, k2, governing the association rate of enzyme and radiolabelled inhibitor. A range of enzyme and inhibitor concentrations were used. […] Further example methods are described in PCT Patent App. Pub. No. WO 02/46387.
(§3) Off rates (k1 in the scheme below) were derived from exchange rate studies where either the test inhibitor, I, or its exchange partner, J were radiolabelled and the data fit according to the scheme below. As noted in Hawkes et al. (2001) Proc. Bright. Crop. Prot. Conf.
(§4) After 30 minutes the exchange reaction was initiated with addition of 100 μl 1 mM ‘cold’ structure A with thorough mixing, and, immediately, 150 μl were withdrawn and loaded onto a NAP5 column, the protein exchanged into 50 mM BisTrisPropane buffer at pH 7.0 containing 0.1M KCl by rapid (<2 min) chromatography down a NAP5 G25 Sephadex column (GE Healthcare Ltd, Buckinghamshire UK) and the amount of ^14C bound to protein measured by Optiphase scintillant using a Tri-Carb 2900TR scintillation counter (Perkin Elmer, Wellesley, Mass.). Further aliquots were removed and measured in the same way at various times over minutes or hours as required in order to determine the exchange kinetics.
(§5) After 30 minutes the reaction vessel was transferred to ice. After a further 10 minutes at ice temperature the exchange reaction was initiated by addition of 100 μl 1 mM Structure A, with thorough mixing, and 150 μl was withdrawn and loaded onto a NAP5 column in a cold room at ˜5-8° C. in order to quantify the amount of radiolabel remaining bound to the protein at various time from the start of exchange at ice temperature.
(§6) Off rates (k1) of HPPD inhibitors that are not available radiolabelled or that present other measurement problems (for example high levels of background non-specific protein-binding which can be measured as radiolabel binding that persists in the presence of high concentrations of ‘cold’ inhibitor) may be measured indirectly. […] Exemplary methods are also described in PCT Patent App. Pub. No. WO 02/46387.

[2] = molecular target: HPPD SEQ ID NO:24 (Avena sativa, UniProt A0ACD5V6K6, DEL109-109/L359M)
Experimental: as §1, §2, §3, §4, §5, §6

[3] = molecular target: HPPD SEQ ID NO:20 (Avena sativa, UniProt A0ACD5V6K6, DEL109-109/I285S)
Experimental: as §1, §2, §3, §4, §5, §6

[4] = molecular target: HPPD SEQ ID NO:23 (Avena sativa, UniProt A0ACD5V6K6, A242W/DEL109-109)
Experimental: as §1, §2, §3, §4, §5, §6

[5] = molecular target: HPPD SEQ ID NO:21 (Avena sativa, UniProt A0ACD5V6K6, DEL109-109/I285V)
Experimental: as §1, §2, §3, §4, §5, §6

[6] = molecular target: HPPD SEQ ID NO:17 (Avena sativa, UniProt A0ACD5V6K6, DEL109-109/Q298S)
Experimental: as §1, §2, §3, §4, §5, §6

[7] = molecular target: HPPD SEQ ID NO:16 (Avena sativa, UniProt A0ACD5V6K6, DEL109-109/Q298G)
Experimental: as §1, §2, §3, §4, §5, §6

[8] = molecular target: T1, HPPD SEQ ID NO:26 (Avena sativa, UniProt A0ACD5V6K6, DEL109-109/L256M/L359M)
T1 sequence (A0ACD5V6K6 with tags, fused parts or gaps DEL109-109/L256M/L359M): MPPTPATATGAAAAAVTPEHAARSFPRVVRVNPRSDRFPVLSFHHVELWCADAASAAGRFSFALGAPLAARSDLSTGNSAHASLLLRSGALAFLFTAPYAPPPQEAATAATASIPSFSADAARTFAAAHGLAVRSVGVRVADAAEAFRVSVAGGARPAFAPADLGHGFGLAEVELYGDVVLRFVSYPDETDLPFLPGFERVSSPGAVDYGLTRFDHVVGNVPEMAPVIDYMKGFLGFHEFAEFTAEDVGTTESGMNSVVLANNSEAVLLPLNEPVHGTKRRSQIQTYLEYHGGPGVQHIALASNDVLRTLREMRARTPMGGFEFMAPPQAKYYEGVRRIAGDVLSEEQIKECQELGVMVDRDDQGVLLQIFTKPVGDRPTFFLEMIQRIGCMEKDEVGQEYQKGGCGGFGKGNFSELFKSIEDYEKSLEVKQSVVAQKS
Experimental: as §1, §2, §3, §4, §5, §6

[9] = molecular target: HPPD SEQ ID NO:25 (Avena sativa, UniProt A0ACD5V6K6, DEL109-109/L359A)
Experimental: as §1, §2, §3, §4, §5, §6

[10] = molecular target: HPPD SEQ ID NO:19 (Avena sativa, UniProt A0ACD5V6K6, DEL109-109/I285A)
Experimental: as §1, §2, §3, §4, §5, §6

[11] = molecular target: HPPD SEQ ID NO:18 (Avena sativa, UniProt A0ACD5V6K6, DEL109-109/I285T)
Experimental: as §1, §2, §3, §4, §5, §6

[12] = molecular target: HPPD SEQ ID NO:15 (Avena sativa, UniProt A0ACD5V6K6, DEL109-109/Q298A)
Experimental: as §1, §2, §3, §4, §5, §6

CS(=O)(=O)c1ccc(C(=O)C2C(=O)CCCC2=O)c([N+](=O)[O-])c1 [Structure B, mesotrione]
Kd [1]: 17.1 nM | koff ([1]; read-out: koff (k1)): 0.0012 s⁻¹ | Kd [2]: 22.4 nM | dissociation from HPPD SEQ ID NO:24 compared with HPPD SEQ ID NO:14 ([2]; off rate, FIGS. 4A-4C): about twice as fast | koff ([2]; read-out: koff (k1)): 0.00157 s⁻¹ | SEQ ID NO:24 superior to SEQ ID NO:14 (in vitro, in particular off rate data) ([2]; relative to SEQ ID NO:14): 2 fold | Kd [3]: 28.6 nM | koff ([3]; read-out: koff (k1)): 0.0009 s⁻¹ | kon ([3]; read-out: kon (k2)): 31500 M⁻¹ s⁻¹ | Kd [4]: 10 nM | koff ([4]; read-out: koff (k1)): 0.0007 s⁻¹ | kon ([4]; read-out: kon (k2)): 70000 M⁻¹ s⁻¹ | Kd [5]: 8.6 nM | koff ([5]; read-out: koff (k1)): 0.0006 s⁻¹ | kon ([5]; read-out: kon (k2)): 70000 M⁻¹ s⁻¹ | Kd [6]: 18.9 nM | koff ([6]; read-out: koff (k1)): 0.001 s⁻¹ | kon ([6]; read-out: kon (k2)): 53000 M⁻¹ s⁻¹ | Kd [7]: 37.7 nM | koff ([7]; read-out: koff (k1)): 0.002 s⁻¹ | kon ([7]; read-out: kon (k2)): 53000 M⁻¹ s⁻¹ | Kd [8]: 42.9 nM | koff ([8]; read-out: koff (k1)): 0.003 s⁻¹ | Kd [9]: 40 nM | koff ([9]; read-out: koff (k1)): 0.0008 s⁻¹ | kon ([9]; read-out: kon (k2)): 20000 M⁻¹ s⁻¹ | Kd [10]: 19.7 nM | koff ([10]; read-out: koff (k1)): 0.00075 s⁻¹ | kon ([10]; read-out: kon (k2)): 38000 M⁻¹ s⁻¹ | Kd [11]: 17.1 nM | koff ([11]; read-out: koff (k1)): 0.0006 s⁻¹ | kon ([11]; read-out: kon (k2)): 35000 M⁻¹ s⁻¹ | Kd [12]: 11.4 nM | koff ([12]; read-out: koff (k1)): 0.0008 s⁻¹ | kon ([12]; read-out: kon (k2)): 70000 M⁻¹ s⁻¹

— US9175305B2, “Mutant hydroxyphenylpyruvate dioxygenase polypeptides and methods of use” (Syngenta Participations AG, priority 2009, dated 2015)
